Data: patent US20240245770A1, “COMPOSITIONS AND METHODS FOR TREATING NEUROMUSCULAR DISORDERS” (The Regents of the University of California, priority 2019, published 2024)

Legend:
NK cells = experiment: NK Luminex, cytokine/chemokine/growth factor/ligands secretion; assay type: cell-based, human
Method: No overall differences in cytokine/chemokine/growth factor/ligands in sorted NK cells of patient activated with IL-2 or IL-2+antiCD16 or IL-2+sAJ2 when compared to healthy twin (Tables 55-58). NK Luminex. NK cells were left untreated, treated with IL-2 (1000 U/mL) or treated with the combination of IL-2 and anti-CD16 mAb (3 μg/ml), or IL-2+sAJ2 (Cells:sAJ2 1:20). After an overnight treatment at 37° C., the supernatants were harvested and the levels of cytokine/chemokine/growth factor/ligands secretion were measured using multiplex luminex assay (Millipore, MA) (Tables 55-58).
NK Luminex. NK cells were treated with IL-2 (1000 U/mL) or treated with the combination of IL-2 and anti-CD16 mAb (3 μg/ml). After an overnight treatment at 37° C., the supernatants were harvested and the levels of cytokine/chemokine/growth factor/ligands secretion were measured using multiplex luminex assay (Table 157).

Purified NK cells = experiment: NK ELISA, IFN-γ secretion by purified NK cells; assay type: cell-based, human; conditions: for IFN-γ secretion by the NK cells, Mean: Table 205
Method: Human ELISA kits for IFN-γ and IL-6 were purchased from Biolegend (San Diego, CA). The assay was conducted as recommended by the manufacturer. For certain experiments multiplex arrays were used to determine the levels of secreted cytokines and chemokines. Analysis was performed using MAGPIX (Millipore, MA) and data was analyzed using xPONENT 4.2.
NK ELISA. NK cells were isolated from PBMC following manufacturer's instruction. Purified NK cells were left untreated, treated with IL-2 (1000 U/mL) or treated with the combination of IL-2 and anti-CD16 mAb (3 μg/ml) or IL-2+sAJ2 (Cells:sAJ2 1:20). After an overnight treatment at 37° C., the supernatants were harvested and the levels of IFN-γ secretion were measured using ELISA (Table 21).

[1] = H84 JC NK, overnight treatment, supernatant
[2] = H85 TC (healthy twin) NK supernatant
[3] = H85 TC NK, overnight treatment, supernatant
[4] = JC NK cells, overnight treatment, supernatant
[5] = TC NK cells, overnight treatment, supernatant
[6] = WO NK cells, overnight treatment, supernatant

## Recombinant human IL-2
NK cells; H84 JC (ALS) NK supernatant
  EGF: 48.14 pg/mL
  Eotaxin: 4.6 pg/mL
  FGF2: 5.71 pg/mL
  FIT3L: 4.18 pg/mL
  Fractalkine: 44.23 pg/mL
  GCSF: 31.3 pg/mL
  GMCSF: 3.58 pg/mL
  IFNa2: 20.77 pg/mL
  IFNg: 66.78 pg/mL
  TGFa: 1.14 pg/mL
NK cells; [1]
  GRO: 131.11 pg/mL
  IL-1Ra: 58.41 pg/mL
  IL-1a: 2.88 pg/mL
  IL-1b: 20.77 pg/mL
  IL-3: 1.23 pg/mL
  IL-4: 2.36 pg/mL
  IL-5: 0.98 pg/mL
  IL-6: 16.69 pg/mL
  IL-7: 46 pg/mL
  IL-8: 106.65 pg/mL
  IL-10: 12.03 pg/mL
  IL-12p40: 3.82 pg/mL
  IL-12p70: 3.28 pg/mL
  IL-13: 3.58 pg/mL
  IL-15: 2.05 pg/mL
  IL-17a: 1.91 pg/mL
  IP-10: 88.6 pg/mL
  L-2: 5630 pg/mL
  MCP1: 68.56 pg/mL
  MCP3: 5 pg/mL
  MDC: 4.9 pg/mL
  MIP1a: 144.7 pg/mL
  MIP1b: 356.57 pg/mL
  PDGF-AB/BB: 299.25 pg/mL
  PDGFaa: 35.16 pg/mL
  Rantes: 1949 pg/mL
  TNFa: 32.7 pg/mL
  TNFb: 2.71 pg/mL
  VEGF: 117.33 pg/mL
  sCD40: 15.53 pg/mL
NK cells; [2]
  EGF: 90.93 pg/mL
  Eotaxin: 4.95 pg/mL
  FGF2: 5.11 pg/mL
  FIT3L: 4.6 pg/mL
  Fractalkine: 37.25 pg/mL
  GCSF: 19.59 pg/mL
  GMCSF: 3.22 pg/mL
  IFNa2: 13.08 pg/mL
  IFNg: 11.06 pg/mL
  TGFa: 1.09 pg/mL
NK cells; [3]
  GRO: 101.06 pg/mL
  IL-1Ra: 56.84 pg/mL
  IL-1a: 2.01 pg/mL
  IL-1b: 2.85 pg/mL
  IL-3: 1.15 pg/mL
  IL-4: 2.48 pg/mL
  IL-5: 1.14 pg/mL
  IL-6: 3.22 pg/mL
  IL-7: 4.9 pg/mL
  IL-8: 20.47 pg/mL
  IL-9: 8.45 pg/mL
  IL-10: 3.82 pg/mL
  IL-12p40: 3.82 pg/mL
  IL-12p70: 2.61 pg/mL
  IL-13: 3.82 pg/mL
  IL-15: 1.9 pg/mL
  IL-17a: 2 pg/mL
  IP-10: 157.61 pg/mL
  L-2: 5645 pg/mL
  MCP1: 52.33 pg/mL
  MCP3: 4.26 pg/mL
  MDC: 4.9 pg/mL
  MIP1a: 144.7 pg/mL
  MIP1b: 475.47 pg/mL
  PDGF-AB/BB: 517.51 pg/mL
  PDGFaa: 42.99 pg/mL
  Rantes: 2913 pg/mL
  TNFa: 10.33 pg/mL
  TNFb: 2.85 pg/mL
  VEGF: 118.96 pg/mL
  sCD40: 8.91 pg/mL
NK cells; [4]
  GCSF: 2.94 pg/mL
  IL-6: 42.5 pg/mL
  IL-17A: 2.34 pg/mL
  Rantes: 859.54 pg/mL
  TNFa: 22.64 pg/mL
NK cells; [5]
  GCSF: 2.37 pg/mL
  IL-6: 21.79 pg/mL
  IL-17A: 2.38 pg/mL
  Rantes: 1944 pg/mL
  TNFa: 19.74 pg/mL
NK cells; [6]
  GCSF: 2.51 pg/mL
  IL-6: 3.5 pg/mL
  IL-17A: 2.3 pg/mL
  Rantes: 5684 pg/mL
  TNFa: 7.42 pg/mL
Purified NK cells; H65 SM NK, (1:5)
  IFN-γ secretion (ELISA): 24.6
Purified NK cells; H66 JC (ALS) NK, (1:5)
  IFN-γ secretion (ELISA): 137.4
Purified NK cells; H70 JC (ALS) NK (1:5)
  IFN-γ secretion (ELISA): 1478.8
Purified NK cells; H80 DM NK alone, 1:5 dilution
  IFN-γ secretion (ELISA): 228.72
Purified NK cells; H81 JC (ALS) NK alone, 1:5 dilution
  IFN-γ secretion (ELISA): 400.84
Purified NK cells; H82 TC (healthy twin) NK alone, 1:5 dilution
  IFN-γ secretion (ELISA): 337.43
Purified NK cells; H84 JC NK alone, 1:8 dilution
  IFN-γ secretion (ELISA): 248.16
Purified NK cells; H85 TC NK alone, 1:8 dilution
  IFN-γ secretion (ELISA): 342.10
Purified NK cells; H117 JC NK, straight, overnight treatment
  IFN-γ secretion (ELISA): 496.896
Purified NK cells; H118 TC NK, straight, overnight treatment
  IFN-γ secretion (ELISA): 406.875
Purified NK cells; H171 JC NK (1:5), ALS
  IFN-γ release: 157.01
Purified NK cells; H172 TC NK (1:5), control twin
  IFN-γ release: 27.63
Purified NK cells; H174 JC NK (1:5), ALS
  IFN-γ release: 20.15
Purified NK cells; H175 TC NK (1:5), control twin
  IFN-γ release: 608.98
Purified NK cells; H195 RS NK (1:5)
  IFN-γ secretion by the NK cells, Mean: 0.00
Purified NK cells; H196 TC NK (1:5)
  IFN-γ secretion by the NK cells, Mean: 0.00
Purified NK cells; H211 JC NK (1:5)
  IFN-γ secretion, Mean: 6.33
Purified NK cells; H211 JC NK straight
  IFN-γ secretion: 102.81
Purified NK cells; H212 TC NK (1:5)
  IFN-γ secretion, Mean: 0.00
Purified NK cells; H212 TC NK straight
  IFN-γ secretion: 29.51
Purified NK cells; H213 JC NK (1:5)
  IFN-γ secretion, Mean: 29.09
Purified NK cells; H213 JC NK straight
  IFN-γ secretion: 26.07
Purified NK cells; H214 TC NK (1:5)
  IFN-γ secretion, Mean: 0.00
Purified NK cells; H214 TC NK straight
  IFN-γ secretion: 22.45
Purified NK cells; NK of H102 JC, overnight treatment
  IFN-γ secretion, ELISA, NK1:5 Mean: 121.79
Purified NK cells; NK of H103 TC, overnight treatment
  IFN-γ secretion, ELISA, NK1:5 Mean: 73.19
Purified NK cells; NK of H104 RS, overnight treatment
  IFN-γ secretion, ELISA, NK1:5 Mean: 97.72
Purified NK cells; P65 LP NK, (1:5)
  IFN-γ secretion (ELISA): 56.2
Purified NK cells; P82 SS NK alone, 1:5 dilution
  IFN-γ secretion (ELISA): 526.84
Purified NK cells; P113 HA NK, Straight, overnight treatment at 37° C.
  IFN-γ secretion, ELISA, Mean: 0.00
